Measurements reported in ChEMBL document CHEMBL5316302, “Deciphering Nonbioavailable Substructures Improves the Bioavailability of Antidepressants by Serotonin Transporter” (J Med Chem, 2023).

Assay: Clearance in Beagle dog at 1 mg/kg, iv measured upto 24 hrs by LC-MS/MS analysis
Format: ADME, organism-based, Canis lupus familiaris
Conditions: in vivo

N#Cc1ccc2[nH]cc(CCCCN3CCN(c4ccc5oc(C(N)=O)cc5c4)CC3)c2c1 [VILAZODONE]
CL: 347 mL/min/kg
